Results on 12 compounds are retold here after patent publication US7390873B2, “Antimicrobial cationic peptides” (University of British Columbia, priority 1995, dated 2008).

Values after ≈ are worked out from the molar mass of the structure shown. Where a SMILES comes first, the peptide text is derived from it. Where no end group is shown, it is not given here. [ ]: non-standard residue; d: D form. A value given as a limit tells only on which side of the number the result lay.

The subject of assay [1] is Salmonella typhimurium 14028S. The assay is classed as cell-based. As to conditions: for MIC S. typhimurium: 24 h.
The test system of assay [2] is Salmonella typhimurium 14028S. The experiment in a line: Relative MIC of crude preparations of recombinant peptides. The assay is classed as cell-based. As to conditions: for Gram-negative activity relative to indolicidin: from MICs of crude preparations of recombinant peptides. The source says: Expression and purification of various cationic peptides has previously been described (Hancock et al., U.S. Ser. No. 08/575,052, incorporated herein by reference, and Gene, 134 (1993) 7-13). In order to recombinantly express various antimicrobial peptides described below, oligonucleotides representing both strands of DNA encoding the various peptides were synthesized on an Applied Biosystems 392 DNA/RNA synthesizer using conventional methods. After annealing of the strands of DNA, the resulting DNA fragments were cloned into the Staphyloccus aereus expression vector pRIT5. Following transformation of the various clones into E. Coli DH5α, the recombinant plasmids were purified and sequenced and then electroporated (Bio Rad Gene Pulser Transfection Apparatus) into S. aereus K147.

In assay [3] the test system is Salmonella typhimurium 14028S. The experiment in a line: Screening of recombinant clones, modified broth MIC assay. As to conditions: peptide preparation from clone; 8-well doubling dilution; 24 hours.

In the case of `CC[C@H](C)[C@H](N)C(=O)N[C@@H](CC(C)C)C(=O)N1CCC[C@H]1C(=O)N[C@@H](Cc1c[nH]c2ccccc12)C(=O)N[C@@H](CCCCN)C(=O)N[C@@H](Cc1c[nH]c2ccccc12)C(=O)N1CCC[C@H]1C(=O)N[C@@H](Cc1c[nH]c2ccccc12)C(=O)N[C@@H](Cc1c[nH]c2ccccc12)C(=O)N1CCC[C@H]1C(=O)N[C@@H](Cc1c[nH]c2ccccc12)C(=O)N[C@@H](CCCNC(=N)N)C(=O)N[C@@H](CCCNC(=N)N)C(=O)OC` [Indolicidin-C], in assay [1], the “MIC S. typhimurium” value is 2 µg/mL (≈ 1.04 µM).

For the compound `CC[C@H](C)[C@H](N)C(=O)N[C@@H](CC(C)C)C(=O)N1CCC[C@H]1C(=O)N[C@@H](Cc1c[nH]c2ccccc12)C(=O)N[C@@H](CCCCN)C(=O)N[C@@H](Cc1c[nH]c2ccccc12)C(=O)N1CCC[C@H]1C(=O)N[C@@H](Cc1c[nH]c2ccccc12)C(=O)N[C@@H](Cc1c[nH]c2ccccc12)C(=O)N1CCC[C@H]1C(=O)N[C@@H](Cc1c[nH]c2ccccc12)C(=O)N[C@@H](CCCNC(=N)N)C(=O)N[C@@H](CCCNC(=N)N)C(=O)O` [Indolicidin-R, reference compound], the “MIC S. typhimurium 14028S” value in assay [1] was found to be 16 µg/mL (≈ 8.39 µM). For the same compound, in assay [2], the “Gram-negative activity relative to indolicidin” value was 1X. Also, the “Wells of doubling dilution series in which growth of the test organism was prevented” value in assay [3] is reported as “first”.

Regarding `CC[C@@H](C)[C@@H](N)C(=O)N[C@@H](CC(C)C)C(=O)N[C@@H](CCCCN)C(=O)N[C@@H](CCCCN)C(=O)N[C@@H](Cc1c[nH]c2ccccc12)C(=O)N1CCC[C@H]1C(=O)N[C@@H](Cc1c[nH]c2ccccc12)C(=O)N[C@@H](Cc1c[nH]c2ccccc12)C(=O)N1CCC[C@H]1C(=O)N[C@@H](Cc1c[nH]c2ccccc12)C(=O)N[C@@H](CCCNC(=N)N)C(=O)N[C@@H](CCCNC(=N)N)C(=O)N[C@@H](CCCCN)C(=O)OC` [CP-11DC] (H-[dI]LKKWPWWPWRRK-OMe; N-terminus assumed), the “MIC S. typhimurium” value in assay [1] came to 2 µg/mL (≈ 1.06 µM).

For ILKKWPWWPWRRK [CP-11], in assay [1], the “MIC S. typhimurium” value was 2 µg/mL.

With ILPWKWPWYVRR [CP-IA], the “MIC S. typhimurium” value in assay [1] was over 32 µg/mL.

For the compound ILPWKKWPWWRWRR [CP-3R], the “MIC S. typhimurium 14028S” value in assay [1] was found to be 8 µg/mL. Moreover, the “Activity against gram-negative bacteria compared with indolicidin-R” value in assay [2] (MIC assay) is “increased activity”. Also, the “Gram-negative activity relative to indolicidin” value in assay [2] is given as 4X. The “Wells of doubling dilution series in which growth of the test organism was prevented” value in assay [3] was “first and second”.

For ILKKWPWWPWKWKK [CP-13], the “MIC S. typhimurium” value in assay [1] amounted to 4 µg/mL.

For FFKKFPFFPFRRK [CP-24], the “MIC S. typhimurium” value in assay [1] was found to be 8 µg/mL.

With `CC[C@@H](C)[C@@H](N)C(=O)N[C@@H](CC(C)C)C(=O)N1CCC[C@H]1C(=O)N[C@@H](Cc1c[nH]c2ccccc12)C(=O)N[C@@H](CCCCN)C(=O)N[C@@H](Cc1c[nH]c2ccccc12)C(=O)N1CCC[C@H]1C(=O)N[C@@H](Cc1c[nH]c2ccccc12)C(=O)N[C@@H](Cc1c[nH]c2ccccc12)C(=O)N1CCC[C@H]1C(=O)N[C@@H](Cc1c[nH]c2ccccc12)C(=O)N[C@@H](CCCNC(=N)N)C(=O)N[C@@H](CCCNC(=N)N)C(=O)O` [Indolicidin-D], the “MIC S. typhimurium” value in assay [1] was 4 µg/mL (≈ 2.1 µM).

For the compound `CC[C@H](C)[C@H](N)C(=O)N[C@@H](CC(C)C)C(=O)N[C@@H](CCCCN)C(=O)N[C@@H](CCCCN)C(=O)N[C@@H](Cc1c[nH]c2ccccc12)C(=O)N1CCC[C@H]1C(=O)N[C@@H](Cc1c[nH]c2ccccc12)C(=O)N[C@@H](Cc1c[nH]c2ccccc12)C(=O)N1CCC[C@H]1C(=O)N[C@@H](Cc1c[nH]c2ccccc12)C(=O)N[C@@H](CCCNC(=N)N)C(=O)N[C@@H](CCCNC(=N)N)C(=O)N[C@@H](CCCCN)C(=O)OC` [CP-11C] (H-ILKKWPWWPWRRK-OMe), the “MIC S. typhimurium” value in assay [1] turned out to be 1 µg/mL (≈ 0.528 µM).

For the compound `CC[C@@H](C)[C@@H](N)C(=O)N[C@@H](CC(C)C)C(=O)N1CCC[C@H]1C(=O)N[C@@H](Cc1c[nH]c2ccccc12)C(=O)N[C@@H](CCCCN)C(=O)N[C@@H](Cc1c[nH]c2ccccc12)C(=O)N1CCC[C@H]1C(=O)N[C@@H](Cc1c[nH]c2ccccc12)C(=O)N[C@@H](Cc1c[nH]c2ccccc12)C(=O)N1CCC[C@H]1C(=O)N[C@@H](Cc1c[nH]c2ccccc12)C(=O)N[C@@H](CCCNC(=N)N)C(=O)N[C@@H](CCCNC(=N)N)C(=O)OC` [Indolicidin-DC], the “MIC S. typhimurium” value in assay [1] worked out at 4 µg/mL (≈ 2.08 µM).

As for `CC[C@@H](C)[C@@H](N)C(=O)N[C@@H](CC(C)C)C(=O)N[C@@H](CCCCN)C(=O)N[C@@H](CCCCN)C(=O)N[C@@H](Cc1c[nH]c2ccccc12)C(=O)N1CCC[C@H]1C(=O)N[C@@H](Cc1c[nH]c2ccccc12)C(=O)N[C@@H](Cc1c[nH]c2ccccc12)C(=O)N1CCC[C@H]1C(=O)N[C@@H](Cc1c[nH]c2ccccc12)C(=O)N[C@@H](CCCNC(=N)N)C(=O)N[C@@H](CCCNC(=N)N)C(=O)N[C@@H](CCCCN)C(=O)O` [CP-11D] (H-[dI]LKKWPWWPWRRK-OH), the “MIC S. typhimurium” value in assay [1] is 2 µg/mL (≈ 1.06 µM).
